Shown are actives, neighbours in structure and some others; about 1.1% of the full set was active somewhere.
GALK inhibitor: inhibitors of human galactokinase; P51570; Purified GALK, Kinase-Glo residual ATP luminescence; Potency, µM (highest dose often 57.5 µM), usual class: inhibitors; actives 0.007% (n = 270,000); AID 1868
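ATP-depletion format; final 35 uM ATP, 100 uM D-galactose, 5 nM enzyme; pH 8.0 HEPES/Mg2+ buffer; 60 min RT; luminescence read 10 min after detection reagent.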
TrxR1 substrate: substrates of rat thioredoxin reductase 1 | purified TrxR1 substrate turnover, NADPH consumption readout | actives 0.01% (n = 390,000) | AID 588456 | Potency, µM (highest dose often 114 µM) | O89049; further: nearly all actives have a fitted effect of over 50% in size
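Rat TrxR1, dispensed at 90 nM, was prereduced with 400 uM NADPH (final) for 5 min at ~22 deg C, then incubated with compound 15 min before 400 uM selenite. A first-read NADPH fluorescence drop versus no-compound background flagged substrates.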
rTrxR1 inhibitor: rat TrxR1 inhibition | O89049 | recombinant rTrxR1, NADPH fluorescence consumption, selenite substrate | Potency, µM (titrated, usually from 114 µM), hits mostly inhibitors | actives 1% (n = 390,000); further: nearly all actives have a fitted effect of over 65% in size
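Rat TrxR1 (90 nM in the dispensed reagent) was pre-reduced with 400 uM NADPH for 5 min at room temperature, then incubated with compound for 15 min. After 400 uM selenite was added, NADPH fluorescence (Ex 340/Em 450 nm) was followed for 8 min.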
miR-21 FLuc: miR-21 reporter, rising signal; HeLa miR-21 FLuc reporter, luciferase, 48 h; Potency, µM (doses to about 38.3 µM); 340,000 tested, under 10 active; AID 2288; active = well fitted rising curve with a large enough effect; inconclusive = small, poorly fitted or top-dose-only effect; inactive = no such curve, though single readings can be large or run the other way;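 further: miR-21 action dims this reporter so a rising signal means less miR-21 action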
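Luminescence from a firefly luciferase reporter carrying a miR-21 binding site downstream, stably expressed under a CMV promoter in HeLa cells that make miR-21 endogenously, reports miRNA modulation after 48 h compound exposure up to approximately 40uM final.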
PINK1 expr mod: changes PINK1 expression. PINK1 immunofluorescence, high-content cytometry, 24 h. Potency, µM (series often up to 76.6 µM), hits mostly activators. actives 0.2% (n = 410,000); active means well fitted activation curve with a large enough effect; inconclusive means small, poorly fitted or top-dose-only effect; cell line not stated here; further: nearly all actives have a fitted effect of over 65% in size
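Stable cell line, 250 cells/well, 12 h attachment; compounds pinned at 5 concentrations, 24 h; CCCP control. Fixed with nuclear dye, primary antibodies 12 h at 10 degrees C, secondary plus cell stain; laser-scanning cytometer read.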
Numbers stand for hits; . = inactive; ? = inconclusive; / = not tested or not shown; ! = not confirmed by another sample. Unless noted, the call rests on the fitted dose curve; in most records, active means well fitted curve in the direction sought with a large enough effect; inconclusive means small, poorly fitted or top-dose-only effect, or another doubt; inactive means no such curve, though single readings can be large; an effect the other way counts as inactive or inconclusive.

SMILES	GALK inhibitor	TrxR1 substrate	rTrxR1 inhibitor	miR-21 FLuc	PINK1 expr mod
Cc1cccc(C)c1NC(=O)CSc1nnc(-c2ccco2)c(-c2ccco2)n1	.	.	3.2µM	.	.
O=C(c1ccccc1)C(CN1CCCCC1)c1ccccc1 (stereo not drawn)	/	.	25µM	/	.
CCOC(=O)c1ccccc1NC(=O)N(C)CCc1c(C)nn(CC)c1C	/	.	.	.	.
CCN1/C(=C/c2ccc3ccccc3[n+]2CCCS(=O)(=O)[O-])C=Cc2cc(C)ccc21	.	.	.	.	.
CCN1/C(=C/c2cc[n+](C)cc2)C=Cc2cc(C)ccc21	.	.	.	.	10µM
O=C1[C@@H]2C(c3cccnc3)=NO[C@@H]2C(=O)N1c1ccc2ccccc2c1	.	.	16µM	.	.
C(=C\c1nc(N2CCCCCC2)c2ccccc2n1)/c1ccccc1	.	.	.	.	35µM
c1ccc2c(N3CCCCC3)nc(N3CCCCC3)nc2c1	.	.	.	.	?
COc1cccc(C(Nc2ccccn2)c2oc(CO)cc(=O)c2O)c1 (stereo not drawn)	.	.	71µM	.	.
O=c1cc(CO)oc(C(Nc2ccccn2)c2cccc(F)c2)c1O (stereo not drawn)	.	.	20µM	.	.
O=c1cc(CO)oc(C(Nc2ccccn2)c2ccc(C(F)(F)F)cc2)c1O (stereo not drawn)	.	.	.	.	.
CC(=O)N1CCC2(CCCN(c3ccccc3)C2)CC1	/	/	/	/	.
COc1cccc(CNC(=O)C2CCN(C(=O)c3cnn(-c4ccccc4)c3-n3cccc3)CC2)c1	/	.	.	.	.
CCOC(=O)NC(=O)CSc1nc(C)cc(C(F)(F)F)c1C#N	.	.	.	.	.
Cc1cc(C(F)(F)F)c(C#N)c(SCC(=O)Nc2nc3cc(Br)ccc3s2)n1	/	.	.	.	14µM
O=C(CCS(=O)(=O)c1ccccc1)N(CCCN1CCOCC1)c1nc2ccc(F)cc2s1	/	.	7.1µM	/	.
O=C(CCS(=O)(=O)c1ccccc1)N(CCCN1CCOCC1)c1nc2c(F)cccc2s1	/	.	3.2µM	/	.
CCc1cccc2sc(N(CCCN3CCOCC3)C(=O)CS(=O)(=O)c3ccccc3)nc12	/	.	.	/	.
CC(=O)N1c2ccc(S(=O)(=O)N3CCCCCC3)cc2CC1C(=O)NCc1cccc(C)c1 (stereo not drawn)	/	.	.	.	.
CCc1ccc(S(=O)(=O)/N=C2/C=C(Sc3ncn[nH]3)C(=O)c3ccccc32)cc1	.	7.9µM	?	?	.
CCc1ccc(S(=O)(=O)/N=C2\C=CC(=O)c3ccccc32)cc1	.	/	/	.	/
COc1ccccc1NC(=O)C1=C(C)Nc2ncnn2C1c1cccn1C (stereo not drawn)	/	.	.	.	?
Cc1cc(C)n(CC(=O)NC2C(=O)N3C(C(=O)O)=C(CSc4nnc(C)s4)CSC23)n1 (stereo not drawn)	.	.	.	.	.
Cc1nnc(SCC2=C(C(=O)O)N3C(=O)C(NC(=O)Cn4ncc(Cl)c4C)C3SC2)s1 (stereo not drawn)	.	.	22µM	.	.
CCOC(=O)C(=Cc1ccc(-n2ccnc2)cc1)C(=O)OCC	.	.	20µM	?	.
SMILES	GALK inhibitor	TrxR1 substrate	rTrxR1 inhibitor	miR-21 FLuc	PINK1 expr mod
CCOC(=O)/C(=C/c1ccc(OC(=O)c2ccncc2)cc1)C(C)=O	.	.	6.3µM	.	.
CCOC(=O)C(=Cc1ccc(Br)cc1)C(=O)OCC	.	.	25µM	?	.
CCOC(=O)c1c(C)oc2ncnc(N3CCN(c4ccccc4F)CC3)c12	/	.	.	.	.
CCc1nc2cc(C(=O)N(C)CC3COCCO3)cc(NC(=O)c3ccccc3OC)c2n1C (stereo not drawn)	/	/	/	/	.
Cc1ccc(Cn2c(=S)[nH]c3ccc(N4CCOCC4)cc3c2=O)o1	.	.	4.5µM	.	.
O=C(NCC1(N2CCOCC2)CCCC1)c1cnn(-c2nccc(-c3cccs3)n2)c1C1CC1	/	/	/	/	.
CCN(CC)C(=O)Oc1ccc2c(c1)O/C(=C\c1ccco1)C2=O	/	.	?	.	.
CCC(=O)Oc1ccc2c(c1)O/C(=C\c1ccco1)C2=O	.	.	79µM	.	.
COCCN(CCOC)Cc1c(O)ccc2c1O/C(=C\c1ccco1)C2=O	.	.	79µM	.	.
COc1ccc(/C=C/C(=O)Nc2nc3n(n2)C(c2ccc(F)cc2)C=C(c2ccccc2)N3)cc1 (stereo not drawn)	/	.	.	.	.
CCOC(=O)/C=C1\CN(Cc2ccc(OC)cc2)S(=O)(=O)c2ccc(C(F)(F)F)cc21	/	.	25µM	/	/
CCOC(=O)c1c(C)c(-c2ccccc2)n(CC(=O)Nc2cccc(F)c2)c1C	/	.	.	.	.
CCOC(=O)C1CCN(C(=O)c2nn(-c3ccc(C)cc3)c(=O)n(C)c2=O)CC1	/	.	.	.	.
CCOC(=O)c1c(N)sc(N)c1C(=O)OCC	/	.	.	.	.
CCOC(=O)c1c(N)sc(=S)c2c1CCC2	.	.	71µM	.	.
Cc1ccccc1NC(=O)c1cc(-c2ccco2)nc2ccccc12	/	.	.	/	.
O=C(O)c1cc(-c2ccco2)nc2ccc(Br)cc12	.	.	1.3µM!	.	.
O=C(c1cc(-c2ccco2)nc2ccccc12)N1CCN(Cc2ccccc2)CC1	/	.	40µM	/	.
Cc1ccc(S(=O)(=O)N(C)C)cc1NC(=O)c1cc(-c2ccco2)nc2ccccc12	.	.	3.5µM	.	.
O=C(c1ccco1)N1CCN(C(=O)c2cc(-c3ccccc3)nc3ccccc23)CC1	/	.	.	.	.
CCCCCCNC(=O)c1cc(-c2ccco2)nc2ccccc12	.	.	3.5µM	.	.
CCN(Cc1ccccc1)C(=O)Cn1c(=O)n(-c2ccc(C)c(C)c2)c(=O)c2c(C)c(C)sc21	/	.	.	.	.
Cc1cnc(-n2ncc(C(=O)NCCN3CCOCC3)c2C2CC2)nc1-c1cccs1	/	/	/	/	.
COc1ccccc1CNC(=O)COC(=O)c1cc(-c2ccco2)nc2ccccc12	.	.	?	.	.
CCCCn1c(N)c(N(CC(C)C)C(=O)c2cc(-c3ccco3)nc3ccccc23)c(=O)[nH]c1=O	/	.	?	/	.
Cn1c(=O)c(C(=O)COC(=O)c2cc(-c3ccco3)nc3ccccc23)c(N)n(Cc2ccccc2)c1=O	/	/	/	.	/
NC(=O)COC(=O)c1cc(-c2ccco2)nc2ccccc12	.	.	79µM	.	.
COc1cc(/C=N/NC(=O)c2cc(-c3ccco3)nc3ccccc23)cc(OC)c1O	/	.	13µM	.	.
CC(C)Cn1c(N)c(C(=O)COC(=O)c2cc(-c3ccco3)nc3ccccc23)c(=O)n(C)c1=O	.	.	2.8µM	.	?
CCCCN(C(=O)c1cc(-c2ccco2)nc2ccccc12)c1c(N)n(CCC)c(=O)[nH]c1=O	/	.	79µM	/	.

Assay outcomes (PubChem)
